Assay [1] deals with Sodium-dependent dopamine transporter (Rattus norvegicus, UniProt P23977).
Assay [2] concerns the target Sodium-dependent serotonin transporter (Rattus norvegicus, UniProt P31652).

By UniProt entry, the sequences of proteins in these tests, tags left out.
UniProt P23977, whole entry: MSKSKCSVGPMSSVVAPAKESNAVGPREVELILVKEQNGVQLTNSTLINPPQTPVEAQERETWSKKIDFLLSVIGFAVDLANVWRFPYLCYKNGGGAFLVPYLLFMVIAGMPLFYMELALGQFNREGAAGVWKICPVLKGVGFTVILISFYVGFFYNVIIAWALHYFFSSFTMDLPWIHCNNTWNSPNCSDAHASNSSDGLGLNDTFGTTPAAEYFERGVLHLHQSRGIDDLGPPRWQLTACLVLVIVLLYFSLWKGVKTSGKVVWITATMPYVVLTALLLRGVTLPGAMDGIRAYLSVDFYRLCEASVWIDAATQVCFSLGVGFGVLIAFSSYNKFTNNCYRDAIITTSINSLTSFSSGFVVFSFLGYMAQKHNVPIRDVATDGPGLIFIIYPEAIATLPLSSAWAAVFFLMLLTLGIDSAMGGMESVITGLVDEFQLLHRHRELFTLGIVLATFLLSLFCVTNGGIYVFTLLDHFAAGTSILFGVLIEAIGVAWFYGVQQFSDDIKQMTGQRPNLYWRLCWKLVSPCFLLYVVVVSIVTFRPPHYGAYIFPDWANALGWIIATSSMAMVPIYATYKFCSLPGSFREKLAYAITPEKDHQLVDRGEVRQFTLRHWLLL
UniProt P31652, whole entry: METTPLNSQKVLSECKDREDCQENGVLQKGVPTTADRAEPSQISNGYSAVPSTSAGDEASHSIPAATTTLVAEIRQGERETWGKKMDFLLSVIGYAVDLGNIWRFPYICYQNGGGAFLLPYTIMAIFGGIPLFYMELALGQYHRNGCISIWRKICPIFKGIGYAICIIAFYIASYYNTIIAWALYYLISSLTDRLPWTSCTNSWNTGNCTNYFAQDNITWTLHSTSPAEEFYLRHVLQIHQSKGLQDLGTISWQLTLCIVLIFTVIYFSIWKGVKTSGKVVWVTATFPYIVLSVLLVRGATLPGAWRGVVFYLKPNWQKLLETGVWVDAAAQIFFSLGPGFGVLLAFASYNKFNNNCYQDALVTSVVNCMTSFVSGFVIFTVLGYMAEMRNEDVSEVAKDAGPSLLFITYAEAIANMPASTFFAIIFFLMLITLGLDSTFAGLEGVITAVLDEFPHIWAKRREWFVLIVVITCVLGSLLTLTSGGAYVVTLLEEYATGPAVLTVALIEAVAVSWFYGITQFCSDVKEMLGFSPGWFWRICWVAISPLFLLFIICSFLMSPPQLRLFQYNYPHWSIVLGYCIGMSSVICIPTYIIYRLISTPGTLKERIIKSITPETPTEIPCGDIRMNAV

Ki data for two compounds are collected here from BindingDB's records for PubMed 6123593 (Eli Lilly, 1982).

The Ki is the equilibrium dissociation constant of an inhibitor or competing ligand from its target.

“And” between values parts separate entries of the source, which are not always exact repeats. Identical values can stand only once.

Regarding `CNCCC(Oc1ccccc1OC)c1ccccc1` (stereo not drawn) [3-(2-methoxyphenoxy)-N-methyl-3-phenylpropan-1-amine], the Ki in assay [1] is 1750 nM and 2450 nM and 360 nM; in assay [2], 690 nM and 1000 nM.

As to `CNCCC(Oc1ccccc1C)c1ccccc1` (stereo not drawn) [Methyl-(3-phenyl-3-o-tolyloxy-propyl)-amine(tomoxetine)], the Ki in assay [2] is 750 nM.
